Drawing on ChEMBL document CHEMBL5329216, “Discovery of conformationally constrained c-Abl inhibitors with potential neuroprotective effects against Parkinson's disease” (Bioorg Med Chem, 2023), this text covers Activity for one molecule.

The structures appear in SMILES notation.

The test system of this assay is SH-SY5Y. As to the kind of experiment: Neuroprotective activity against MPP+-induced human SH-SY5Y cells assessed as reduction in cell death measured after 48 hrs by MTT assay. It counts as functional, cell-based. For orientation: Tetrazolium dyes change colour on reduction, which living cells bring about.

Regarding `Cc1cn(-c2cc(NC(=O)c3ccc(C)c(Nc4nccc(-c5cccnc5)n4)c3)cc(C(F)(F)F)c2)cn1` [NILOTINIB], the Activity entry was “Dose-Dependent Effect”.
